By UniProt entry, the sequences of proteins in these tests, tags left out. Where a name states a change or a piece, a line headed by the entry shows the natural chain unless it says otherwise.
UniProt P32755: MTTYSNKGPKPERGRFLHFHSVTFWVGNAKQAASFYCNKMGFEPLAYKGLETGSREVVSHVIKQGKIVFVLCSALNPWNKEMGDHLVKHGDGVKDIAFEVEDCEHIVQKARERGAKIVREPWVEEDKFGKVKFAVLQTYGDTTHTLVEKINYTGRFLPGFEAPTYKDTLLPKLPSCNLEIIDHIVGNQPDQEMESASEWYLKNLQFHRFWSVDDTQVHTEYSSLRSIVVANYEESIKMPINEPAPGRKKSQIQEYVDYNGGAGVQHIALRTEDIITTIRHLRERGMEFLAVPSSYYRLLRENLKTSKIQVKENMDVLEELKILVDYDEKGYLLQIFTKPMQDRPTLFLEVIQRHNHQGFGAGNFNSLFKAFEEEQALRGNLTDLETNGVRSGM

According to ChEMBL document CHEMBL4049382, “4-Hydroxyphenylpyruvate Dioxygenase and Its Inhibition in Plants and Animals: Small Molecules as Herbicides and Agents for the Treatment of Human Inherited Diseases” (J Med Chem, 2017):

Key:
[1] = molecular target: T1, 4-hydroxyphenylpyruvate dioxygenase (Rattus norvegicus, UniProt P32755); test: Inhibition of Wistar rat liver cytosol HPPD using HPP as substrate assessed as reduction in O2 consumption
[2] = molecular target: T1, 4-hydroxyphenylpyruvate dioxygenase; test: Inhibition of Wistar rat liver HPPD using 4-Hydroxyphenylpyruvate as substrate assessed as reduction in oxygen consumption preincubated for 3 mins followed by substrate addition

O=C1CCCC(=O)C1C(=O)c1ccc(C(F)(F)F)cc1[N+](=O)[O-] [NITISINONE]
IC50 [1]: 40 nM | IC50 [2]: 40 nM
